Values quoted from earlier work as cited in paper PMC11794116.
pKd: −log10 of the molar value.

Chains of the proteins cited; added tags and fusions are not shown. Residues count along the entry.
UniProt P08637, 17-208: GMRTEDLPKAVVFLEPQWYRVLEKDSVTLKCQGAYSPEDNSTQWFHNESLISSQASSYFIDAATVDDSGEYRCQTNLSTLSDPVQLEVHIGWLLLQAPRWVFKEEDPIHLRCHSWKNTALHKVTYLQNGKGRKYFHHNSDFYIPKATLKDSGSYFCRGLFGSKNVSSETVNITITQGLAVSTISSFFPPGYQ

Target: CD16a (F176) (Homo sapiens) (UniProt P08637)

## margetuximab Fc
  pKd: 7.00
